Assays:
Type in all cases: physicochemical
[1] = Storage stability: XRPD and HPLC analysis post storage at 40° C./75% RH or 25° C./97% RH; conditions: for HPLC purity post storage / XRPD analysis / appearance post storage: 1 week
Text: Samples were run under ambient conditions as flat plate specimens using powder as received. The sample was gently packed into a cavity cut into polished, zero-background (510) silicon wafer. The sample was rotated in its own plane during analysis.

[2] = GVS (Gravimetric Vapor Sorption) and XRPD analysis post GVS
VT-XRPD = assay: VT-XRPD

In the case of “Tebipenem Pivoxil HBr Methane Sulfonate Salt (MSA) [Example 7]”, the “HPLC purity post storage” value ([1]; 25° C./97% RH) is reported as 96.5%, the “XRPD analysis / appearance post storage” value ([1]; 25° C./97% RH) is reported as “week, and was a powder post-” and the “XRPD analysis / appearance post storage” value ([1]; 40° C./75% RH and 25° C./97% RH (both conditions)) is reported as “Unchanged by XPRD after 1”. The Appearance post storage ([1]; 40° C./75% RH and 25° C./97% RH for 1-4 weeks, within 2 weeks) was “deliquesced within 2 weeks”, the “XRPD analysis / appearance post storage” value ([1]; 40° C./75% RH) was 25/97 but a gum post-40/75 and the “HPLC purity post storage” value ([1]; 40° C./75% RH, HPLC method not stated at the place) was 95.5%. The GVS uptake [2] was “Sample is hygroscopic. 6.2%”, the “Hygroscopicity by GVS” value [2] was “Sample is hygroscopic. 6.2%” and the GVS isotherm step ([2]; 0 to 10% RH) was “to 10% RH (3.0% wt.) and 80”. For the same substance, the GVS isotherm step ([2]; 80 to 90% RH) was 1.4 % wt and the “VT-XRPD form changes upon heating” value (VT-XRPD) was “Some changes upon heating”.

From patent US10889587B2, “Tebipenem pivoxil crystalline forms, compositions including the same, methods of manufacture, and methods of use” (SPERO THERAPEUTICS, INC., priority 2017, dated 2021)
